The entries are a selection whose mix differs from that of the whole data set. Active and inactive are the calls of the source. Cut-off read from the data, not from the text of the source: active = inhibition above about 4.5%; inactive = the rest.
Each molecule was assayed on Methionine sulfoxide reductase A (Bos taurus) (assay: methionine sulfoxide reductase A inhibition – biochemical, absorbance, bovine, HTS, confirmation (AID 651822;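 note: coupled to thioredoxin reductase with NADPH and selenocystamine and DMSO as substrate; 0% = vehicle only and 100% = full effect of reference inhibitor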)). Conditions: purified bovine MsrA, absorbance read-out; at 15.5 µM; hits give high values.
`CN(Cc1cccnc1)C(=O)COc1ccc(Cl)c(Cl)c1.O=[N+]([O-])c1cc([N+](=O)[O-])c(O)c([N+](=O)[O-])c1` was tested, and the inhibition was inactive: 2.58%.
`Cc1nc2ccc3ccccc3c2s1.O=[N+]([O-])c1cc([N+](=O)[O-])c(O)c([N+](=O)[O-])c1` was tested, and the inhibition was inactive: 3.55%.
With `O=[N+]([O-])c1cc([N+](=O)[O-])c(NCC2CCS(=O)(=O)C2)c([N+](=O)[O-])c1` (centres undefined) the inhibition was inactive: 3.42%.
In the case of `O=[N+]([O-])c1cc([N+](=O)[O-])c(OC2CCCCC2O)c([N+](=O)[O-])c1` (centres undefined), the inhibition is reported as inactive: 2.39%.

— PubChem BioAssay AID651822 (The Scripps Research Institute Molecular Screening Center, 2012)
